From the NIST ThermoML archive (doi:10.1016/j.jct.2017.02.008) come the findings set out here.

± gives the expanded uncertainty stated by the source.

The conditions of series [1]: Crystal; DTA.
Series [2] is described as follows: Molar enthalpy of transition or fusion. The settings on record: Crystal; DSC.

`Cc1ccc(N)c([N+](=O)[O-])c1` [4-methyl-2-nitroaniline]: the Normal melting temperature in series [1] amounted to 115.41 ± 1.1 °C. Moreover, the “Molar enthalpy of transition or fusion” value in series [2] is 5.05 ± 0.22 kcal/mol.
